# Laboratory results published in PubChem BioAssay AID648 (SRMLSC, 2007).
# Only a part is listed here, and it is no random draw. Active and inactive are the calls of the source.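 Rule for the calls: active = viability at or below 30%; inactive = viability above 30%.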
# Test: endothelial cell growth inhibition – HUVEC, 384-well, primary screen (AID 648);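 note: 100% = median luminescence of DMSO-only cell control wells on each plate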
# Conditions: HUVEC proliferation, CellTiter-Glo luminescence, 72 h; hits give low values; screened at 10 µM (by protocol)
row,Structure (SMILES),viability
1,N/C(=N\O)c1c(N)no[n+]1[O-],inactive: 92.7%
2,c1ccc(CN2CCC(Nc3ccccc3)CC2)cc1,inactive: 104%
3,Fc1ccccc1NC1CCN(Cc2ccccc2)CC1,inactive: 87.7%
4,CCC(CO)(C(=O)OC1CN2CCC1CC2)c1ccccc1 (centres undefined),inactive: 96%
5,CCOc1ncccc1C(=O)NCC1(N2CCOCC2)CCCCC1,inactive: 101%
6,O=C(OC1CN2CCC1CC2)C1c2ccccc2Oc2ccccc21 (centres undefined),inactive: 93.3%
7,O=C(NCC1(N2CCOCC2)CCCCC1)c1cc2ccccc2o1,inactive: 99.7%
8,O=C(NCC1(N2CCOCC2)CCCCC1)c1cc(=O)[nH]c2ccccc12,inactive: 93.2%
9,N#CC1(Nc2ccccc2)CCN(CCc2ccccc2)CC1,inactive: 101%
